In patent US7863438B2 (Yamasa Corporation, priority 2005, dated 2011):

Assay: Stability of powdery PAPS salt at ambient temperature in a desiccator (HPLC determination of PAPS)
Settings: powder 10 mg, desiccator (relative humidity: 10%), ambient temperature (23±2° C.), seven days

3′-phosphoadenosine 5′-phosphosulfate
Undecomposed PAPS (%): 95%
